Literature values, collected in article PMC6798786 (Brain Communications, 2019).
Read-outs that look alike come from different tables or passages of the source.

The chains behind the UniProt entries cited, without tags or fusion partners. Residues count along the entry.
UniProt P41595, whole entry: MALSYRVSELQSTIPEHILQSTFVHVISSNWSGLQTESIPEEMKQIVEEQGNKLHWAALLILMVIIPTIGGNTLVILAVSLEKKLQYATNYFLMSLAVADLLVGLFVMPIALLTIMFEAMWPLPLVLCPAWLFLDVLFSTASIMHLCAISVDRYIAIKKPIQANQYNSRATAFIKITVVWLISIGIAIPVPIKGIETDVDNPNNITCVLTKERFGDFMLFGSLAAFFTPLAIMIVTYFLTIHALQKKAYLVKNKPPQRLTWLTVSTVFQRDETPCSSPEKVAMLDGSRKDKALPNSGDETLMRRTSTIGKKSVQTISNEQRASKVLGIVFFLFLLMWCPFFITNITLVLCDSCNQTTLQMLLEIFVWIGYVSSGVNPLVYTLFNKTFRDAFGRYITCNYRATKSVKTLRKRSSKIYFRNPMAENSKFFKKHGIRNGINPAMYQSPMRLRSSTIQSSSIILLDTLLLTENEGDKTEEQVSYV
UniProt P28335, 33-458: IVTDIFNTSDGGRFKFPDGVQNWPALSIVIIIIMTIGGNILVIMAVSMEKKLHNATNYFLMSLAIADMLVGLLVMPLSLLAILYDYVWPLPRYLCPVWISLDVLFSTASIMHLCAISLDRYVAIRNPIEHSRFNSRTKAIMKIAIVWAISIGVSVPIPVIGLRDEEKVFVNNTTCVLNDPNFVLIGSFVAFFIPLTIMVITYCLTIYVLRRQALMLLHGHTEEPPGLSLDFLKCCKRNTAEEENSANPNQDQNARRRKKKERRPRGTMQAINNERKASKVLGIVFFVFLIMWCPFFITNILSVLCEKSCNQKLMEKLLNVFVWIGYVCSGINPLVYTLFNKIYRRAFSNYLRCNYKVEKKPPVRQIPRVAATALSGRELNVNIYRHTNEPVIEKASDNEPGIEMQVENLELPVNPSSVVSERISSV

Assays:
[1] = target: human 5-HT2BR (Homo sapiens, UniProt P41595)
[2] = target: human 5-HT2CR (Homo sapiens, UniProt P28335); conditions: read-out: 5-HT2CR (nM), Table S3; commercially available compounds known to bind 5-HT2BR; ref Roth et al., 2000; cited from earlier work

SMILES	Ki ([1]; commercially available compounds known to bind 5-HT2BR; ref Roth et al., 2000; read-out: 5-HT2BR (nM), Table S3; cited from earlier work)	Ki ([1]; read-out: 5-HT2BR (nM), Table S3; commercially available compounds known to bind 5-HT2BR; ref Roth et al., 2000; cited from earlier work)	Ki [2]
CC(N)Cc1c[nH]c2ccc(OCc3cccs3)cc12 (stereo not drawn)	3.2 nM		
Cl.Clc1cccc(N2CCNCC2)c1		30.3 nM	13 nM
